Data: patent US11529359B2, “Use of GABAA receptor modulators for treatment of itch” (UNIVERSITÄT ZÜRICH, priority 2016, dated 2022)

Tested on: chloroquine-induced itch
Experiment: chloroquine-induced itch (cheek injection) in wild-type mice
Format: in vivo, wild-type C57BL6/J mice
Details: per oral 0.01-3 mg/kg 90 min before 100 μg chloroquine; 30 min
Method: The same doses as in FIGS. 4A-4C of TPA023B were injected 90 minutes before a cheek injection of 100 μg chloroquine (FIGS. 5A & 5B). […] In order to assess the antipruritic effect of TPA023B in a clinically relevant disease, the contact dermatitis model of chronic itch was used. […] Thus, TPA023B is, in accordance with the other findings of the inventors, suitable as an antipruritic substance.
A class of molecules, separate from benzodiazepines, that potentiate the GABAA receptors are the neurosteroids, such as ganaxolone (Carter et al., J Pharmacol Exp Ther. 1997 March; 280(3):1284-95). In order to confirm the GABAA receptor as a target for treatment of pruritus, the inventors pretreated wild-type C57BL/6J mice with 30 mg/kg intraperitoneal ganaxolone (FIGS. 10A & 10B).
Acute itch was assessed in mice that received intradermal microinjections of pruritogens or 0.9% saline into the right cheek, which had been shaved at least one day before the experiment. […] Videos were analyzed off-line. Scratching of the hind paw directed to the ipsilateral cheek was counted in bouts, with one scratching bout defined as an instance when the mouse lifted its paw to scratch until it returned the paw to the cage floor. In case of experiments in which the pruritogen was injected in the skin of the thigh, the time spent biting the injected skin area was counted in s/min as a measure of itch.

CC(C)(O)c1cnn2c(-c3ccc(F)c(-c4c(F)cccc4C#N)c3)cnc2n1 [TPA023B, 6,2′-difluoro-5′-[3-(1-hydroxy-1-methylethyl)imidazo[1,2-b][1,2,4]triazin-7-yl]biphenyl-2-carbonitrile]
scratching bouts, chloroquine-induced itch: dose-dependent reduction of scratching bouts
